The record followed here is patent publication EP0689839A2, “Use of inhibitors of adenosine triphosphatase for the manufacture of a medicament for the treatment of disorders anociated with beta-amyloid peptide” (ELI LILLY AND COMPANY, priority 1994, dated 1996).

“And” between values parts separate entries of the source, which are not always exact repeats. Identical values can stand only once.

The data set concerns 293 751 SWE and CHO 751 SWE. Briefly: Cytotoxic effects / cellular viability by MTT in the cellular assay. Format: cell-based. How it is done: Two cell lines (human kidney cell line 293 and Chinese hamster ovary cell line CHO) were stably transfected with the gene for APP751 containing the double mutation Lys₆₅₁-Met₆₅₂ to Asn₆₅₁-Leu₆₅₂ (APP-751 numbering) commonly called the Swedish mutation using the method described in Citron, et al., Nature (London), 360:672-674 (1992). The transfected cell lines were designated as 293 751 SWE and CHO 751 SWE, and were plated in Corning 96 well plates at 2.5 x 10⁴ or 1 x 10⁴ cells per well respectively in Dulbecco's […] essential media (DMEM) plus 10% fetal bovine serum. Following overnight incubation at 37°C in an incubator equilibrated with 10% carbon dioxide (CO₂) and humidified air, the media were removed and replaced with 200 µl per well of media containing a macrolide. After a two hour pretreatment period, the media were again removed and replaced with fresh media containing the test compound and the cells were incubated for an additional two hours.
Cytotoxic effects of the compounds were measured by a modification of the method of Hansen, et al., Journal of Immununological Methods, 119:203-210 (1989). To the cells remaining in the tissue culture plate, was added 25 µl of a 3-(4,5-dimethylthiazol-2-yl)2,5-diphenyltetrazolium bromide (MTT) stock solution (5 mg/ml) to a final concentration of 1 mg/ml. Cells were incubated at 37°C for one hour, and cellular activity was stopped by the addition of an equal volume of MTT lysis buffer (20% w/v sodium dodecylsulfate in 50% DMF, pH 4.7). Complete extraction was achieved by overnight shaking at room temperature. The difference in the OD562nm and the OD650nm was measured in a UVmax microplate reader as an indicator of the cellular viability.

On to elaiophyline, for which the “Percent Viability” value by setting is: (0.6 µM) 96%; (1.2 µM) 95%; (2.4 µM) 69%; (4.9 µM) 68%; (9.8 µM) 65% and 63%.
